For 1 compound, IC50 results are on record in US9987276B2.

Chains of the proteins cited; added tags and fusions are not shown. Lines headed by an entry give the natural chain unless they say otherwise; changes in a name come on top.
UniProt Q06187: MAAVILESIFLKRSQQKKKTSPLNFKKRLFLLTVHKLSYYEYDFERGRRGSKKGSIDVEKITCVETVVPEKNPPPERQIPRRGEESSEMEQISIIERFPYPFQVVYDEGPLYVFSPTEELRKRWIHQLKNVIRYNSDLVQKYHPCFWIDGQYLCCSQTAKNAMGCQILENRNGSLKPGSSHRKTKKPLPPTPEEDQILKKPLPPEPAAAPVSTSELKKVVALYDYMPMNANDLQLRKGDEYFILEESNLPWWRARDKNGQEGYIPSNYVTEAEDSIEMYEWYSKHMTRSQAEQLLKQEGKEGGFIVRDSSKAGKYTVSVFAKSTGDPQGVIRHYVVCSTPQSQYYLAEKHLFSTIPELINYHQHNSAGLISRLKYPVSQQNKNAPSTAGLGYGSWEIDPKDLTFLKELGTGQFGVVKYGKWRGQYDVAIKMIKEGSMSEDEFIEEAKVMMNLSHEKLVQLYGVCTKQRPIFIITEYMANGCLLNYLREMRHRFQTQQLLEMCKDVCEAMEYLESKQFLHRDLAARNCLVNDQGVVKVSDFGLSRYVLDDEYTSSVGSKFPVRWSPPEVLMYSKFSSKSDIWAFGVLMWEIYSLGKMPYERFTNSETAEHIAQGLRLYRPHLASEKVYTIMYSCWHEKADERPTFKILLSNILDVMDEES

Each structure is given as a SMILES string.

This assay has as its target BTK (Homo sapiens (Human), UniProt Q06187). The assay can be described thus: Omnia assay for potency assessment against BTK. Format: biochemical. Conditions: [BTK]=5 nM, read-out: BTK Inhibition (IC50).

What is called IC50 is the concentration that inhibits the measured activity by half. Turning to `C=CC(=O)Nc1cccc(Nc2nc(Nc3ccc(OCCOC)cc3)ncc2F)c1` [Compound I-182, N-(3-(5-fluoro-2-(4-(2-methoxyethoxy)phenylamino)pyrimidin-4-ylamino)phenyl)acrylamide], the IC50 is less than 0.01 µM.
